Assay: label from the status in PepcDB records

Sequence | protein production
MDLHLFDYSEPGNFSDISWPCNSSDCIVVDTVMCPNMPNKSVLLYTLSFIYIFIFVIGMIANSVVVWVNIQAKTTGYDTHCYILNLAIADLWVVLTIPVWVVSLVQHNQWPMGELTCKVTHLIFSINLFSSIFFLTCMSVDRYLSITYFTNTPSSRKKMVRRVVCILVWLLAFCVSLPDTYYLKTVTSASNNETYCRSFYPEHSIKEWLIGMELVSVVLGFAVPFSIIAVFYFLLARAISASSDQEKHSSRKIIFSYVVVFLVCWLPYHVAVLLDIFSILHYIPFTCRLEHALFTALHVTQCLSLVHCCVNPVLYSFINRNYRYELMKAFIFKYSAKTGLTKLIDASRVSETEYSALEQSTK | failed
SVDMMDLPRSRINAGMLAQFIDKPVCFVGRLEKIHPTGKMFILSDGEGKNGTIELMEPLDEEISGIVEVVGRVTAKATILCTSYVQFKEDSHPFDLGLYNEAVKIIHDFPQFYPLGIVQHD | not failed
SRDIRFANHETLQVIYPYTPQNDDELELVPGDFIFMSPMEQTSTSEGWIYGTSLTTGCSGLLPENYITKADECSTWIFHGS | not failed
